AlphaSeq binding of Ab-91 heavy chain variants to a spike HR2 peptide

The target is the same throughout: PDVDLGDISGINAS, from the HR2 region of SARS-CoV-2 spike.

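The parent was found by panning a naive human phage display library on the peptide. AAYL51 was designed without a model: most single CDR substitutions and a random sample of double and triple ones. The assay is AlphaSeq: two haploid yeast populations carry antibody and antigen on their surface. The frequency of each diploid, read from paired DNA barcodes, reflects how well the two displayed proteins bind. The ratio of observed to expected reads was calibrated, replicate by replicate, on BCL2-family standards whose Kd was known from biolayer interferometry. Each pool was mated in three replicate cultures.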

Each scFv is VL, three GGGGS repeats, VH, as in the parent Ab-91, and differs from it in the CDRs of the heavy chain only.
VL: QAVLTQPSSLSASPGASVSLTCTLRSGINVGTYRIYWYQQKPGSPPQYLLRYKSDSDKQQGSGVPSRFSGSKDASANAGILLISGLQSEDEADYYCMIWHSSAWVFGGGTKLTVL
VH: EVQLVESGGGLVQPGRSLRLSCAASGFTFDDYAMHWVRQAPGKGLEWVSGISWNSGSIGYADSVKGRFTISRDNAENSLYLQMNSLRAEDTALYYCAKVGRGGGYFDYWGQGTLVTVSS

Positions count from residue 1 of the parent VH; F27A puts A in place of F. This list gathers variants with a substitution at G56 (VH, numbered from residue 1). Values are apparent Kd, the geometric mean of the replicates that gave a signal; lower means stronger binding. A pair that was not seen in any replicate is written "no signal"; this usually means weak binding, but a binder can also be missed. Three control strains display no target. For library AAYL51, 21% of the pairings with them gave a signal, with a median of 34 µM and one signal in twenty below 1.8 µM, so weak values seen in few replicates may be background.

Variant F27A+G56K+K65G gave 16 µM (2 of 3 replicates).
Variant S52M+S55G+G56T gave no signal (0 of 3 replicates).
Variant G56A+G59Y gave no signal (0 of 3 replicates).
Variant G56C+R101V+Y105N gave 1.2 µM (1 of 3 replicates).
Variant I51A+G56P+R101M gave 190 µM (2 of 3 replicates).
Variant W53V+G56A+S57Q gave 11 nM (3 of 3 replicates).
Variant M34I+G56A+V64A gave 4.8 µM (3 of 3 replicates).
Variant G26H+G56S+V64R gave no signal (0 of 3 replicates).
Variant Y32C+G56N+D62W gave 51 µM (1 of 3 replicates).
Variant G56S+S63A gave 1.3 µM (2 of 3 replicates).
Variant G56L+I58H+D62P gave no signal (0 of 3 replicates).
Variant G56F+S57A+R101V gave 170 nM (3 of 3 replicates).
Variant S55H+G56W+G59A gave 33 µM (3 of 3 replicates).
Variant G50T+G56K+I58A gave no signal (0 of 3 replicates).
Variant F29S+G56S+S57H gave no signal (0 of 3 replicates).
Variant G56C+K65C gave no signal (0 of 3 replicates).
Variant S55W+G56R+I58P gave no signal (0 of 3 replicates).
Variant G50M+G56C+R101Y gave no signal (0 of 3 replicates).
Variant H35E+G50D+G56E gave no signal (0 of 3 replicates).
Variant G56H+V99T+R101L gave no signal (0 of 3 replicates).
Variant D31H+A33G+G56Q gave 1.3 nM (3 of 3 replicates).
Variant G26P+W53E+G56M gave no signal (0 of 3 replicates).
Variant G56A+G100W+G102M gave 120 nM (3 of 3 replicates).
Variant F29D+A33M+G56N gave 98 µM (1 of 3 replicates).
Variant T28E+G56W+G102A gave 130 µM (1 of 3 replicates).
Variant H35T+G56A+G59P gave 220 µM (2 of 3 replicates).
Variant F27T+G56N+Y105F gave 11 µM (2 of 3 replicates).
Variant S55G+G56M+I58Q gave 3.3 nM (3 of 3 replicates).
Variant G56E+A61I+F106D gave 59 nM (3 of 3 replicates).
Variant G56A+S57C+V99R gave no signal (0 of 3 replicates).
Variant T28D+F29E+G56E gave 53 µM (1 of 3 replicates).

3 of these entries, quoted again:

| changes | apparent Kd | replicates with signal |
|---|---|---|
| T28E+G56W+G102A | 130 µM | 1/3 |
| G26P+W53E+G56M | no signal | 0/3 |
| S55W+G56R+I58P | no signal | 0/3 |

For reference, the parent read 72 nM as the reference entry and 7.5 nM as a member of this library.

Source: Engelhart et al. 2022 (doi:10.1038/s41597-022-01779-4), MIT Lincoln Laboratory and A-Alpha Bio; data file from the FLAb repository.